Target: EGFR on EGFR positive human cancer cells (MDA-MB-468, A431) (human) (UniProt P00533)
Experiment: cell-based or functional assay

Substance: C-Fab-MMAE
- IC50, cell proliferation assay (Cell Titer Glo, 4 d), EGFR positive cells (MDA-MB-468, A431): 0.78 to 0.99 nM

From patent publication US20240226319A1, “EGFR TARGETING FC ANTIGEN BINDING FRAGMENT-DRUG CONJUGATES” (MERCK PATENT GMBH, priority 2021, published 2024)
